## Yeast mating assay B: variants of the scFv Ab-14

All variants were tested on one target, the spike HR2 peptide PDVDLGDISGINAS (SARS-CoV-2).

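The variants were designed computationally from a first round of random CDR variants and then made and measured. Their group label is 14L_GP_HC (GP: Gaussian process model; HC: hill climbing; a sequence that several methods proposed may carry one label only). AlphaSeq pools MATa yeast showing the antibodies with MATalpha yeast showing the peptide. Binding brings cells together so that they mate, and sequencing counts the barcode pairs among the diploids. The ratio of observed to expected reads was calibrated, replicate by replicate, on BCL2-family standards whose Kd was known from biolayer interferometry. Each pool was mated in six replicate cultures.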

The variants keep the heavy chain, the linker and the frameworks of Ab-14 (scFv order VH, three GGGGS repeats, VL).
VH: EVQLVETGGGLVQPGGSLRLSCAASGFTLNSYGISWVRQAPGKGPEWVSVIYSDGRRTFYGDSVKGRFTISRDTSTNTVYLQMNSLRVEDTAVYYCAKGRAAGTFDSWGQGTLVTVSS
VL: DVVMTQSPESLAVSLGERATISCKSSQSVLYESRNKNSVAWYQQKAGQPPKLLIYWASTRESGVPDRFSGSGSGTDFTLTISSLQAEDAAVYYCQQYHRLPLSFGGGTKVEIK

Positions count from residue 1 of the parent VL; V29G puts G in place of V.
Values are log10 of the apparent Kd in nM; lower means stronger binding.
A pair that was not seen in that replicate is written "ND"; this usually means weak binding, but a binder can also be missed.
Three control strains display no target. For all light chain designs, 4% of the pairings with them gave a signal, with a median of 2.64 and one signal in twenty below 1.59, so weak values seen in few replicates may be background. Also given: how often the same scFv was detected with the empty control strains, with their mean in brackets.

| changes | log10 Kd, replicates | empty controls |
|---|---|---|
| V29G N35M W56E | 0.81 0.92 0.40 1.00 0.38 1.14 | 0/18 |
| S25V S26L W56H S62D R99Q S103I | 0.07 -0.13 -0.05 -0.08 -0.09 0.13 | 0/18 |
| S25L S26P S28Q V29W W56S S62E | -0.28 -0.43 -0.50 -0.39 -0.58 -0.12 | 0/18 |
| S25L S26Y Q27N V29H N35Q | 1.89 1.98 1.48 1.77 1.85 2.01 | 1/18 (1.79) |
| K24L Q27I V29Y R34E W56E | 0.56 0.74 0.73 1.20 0.98 1.25 | 1/18 (2.55) |
| Q27M V29Y W56E S103M | 0.50 0.21 0.39 0.16 0.39 0.51 | 2/18 (3.05) |
| V29F W56G Q96C P101T | ND ND ND ND ND ND | 0/18 |
| Q27K Y31F W56N S62E | 1.05 0.61 0.65 0.40 0.68 0.69 | 1/18 (2.75) |
| S25M Y31M W56D S62E | -0.18 -0.37 0.07 -0.48 -0.40 -0.19 | 0/18 |
| K24H Q27P L30E W56N T59F | 0.92 0.65 1.24 0.89 0.98 1.02 | 0/18 |
| S28L L30K Y31F W56D | 1.32 0.80 1.04 0.80 0.37 1.07 | 0/18 |
| S25L S26D V29N W56G | -0.39 -0.21 -0.34 -0.20 -0.48 -0.42 | 1/18 (3.01) |
| Q27P L30K Y31F W56D | 0.27 -0.20 0.05 -0.29 -0.04 0.06 | 0/18 |
| S25Q W56M H98D | 1.68 1.29 0.92 1.46 2.19 1.43 | 0/18 |
| S25F S26L W56H S62D | 0.11 0.05 -0.02 -0.37 -0.01 -0.02 | 0/18 |
| L30A Y31N K36A W56D | 1.36 0.80 1.42 1.32 0.85 1.17 | 1/18 (2.41) |
| S25L S26Q S28Q V29W L30E W56S | 0.10 0.31 0.04 0.22 0.21 0.36 | 5/18 (2.43) |
| S25F S28K S33H N35D W56N | 0.70 0.13 0.20 0.27 0.39 0.56 | 1/18 (2.39) |
| S25V S26R V29T S103M | 1.22 0.26 0.66 0.50 0.79 1.42 | 1/18 (2.41) |
| V29D S33D N35V W56G | 0.61 0.65 0.56 0.34 0.62 0.70 | 0/18 |
| S26Q V29Q W56H S62D | 0.39 0.13 -0.01 -0.06 -0.13 0.11 | 1/18 (2.43) |
| S26R V29W K36F W56G | 0.23 0.25 0.20 0.36 0.28 0.44 | 1/18 (2.22) |
| S25Q S33W R34G W56D | 0.19 -0.26 0.13 -0.17 -0.02 -0.03 | 0/18 |
| Q27I V29Y L30P K36E W56E S62Q | 0.73 0.55 0.63 0.16 0.52 0.63 | 0/18 |
| S25M S33G N35T W56N | 0.44 0.22 0.36 0.06 0.48 0.33 | 1/18 (3.49) |
| S25H S26Q S38N W56H S62D | 0.30 -0.20 0.44 -0.30 -0.42 -0.16 | 0/18 |
| S25L S26D Q27G V29T K36P | 0.17 -0.13 -0.10 -0.27 -0.27 -0.01 | 1/18 (2.67) |
| K24L Q27I V29Y R34P W56E S62Q | ND ND ND ND 2.45 ND | 0/18 |
| S25L S26R V29T S38E W56Q | 0.72 0.58 0.74 0.66 0.66 0.91 | 2/18 (2.96) |
| S25Q Q27C Y31Q W56D | -0.07 -0.02 -0.04 -0.15 -0.16 0.00 | 1/18 (2.65) |
| L30P W56N S62E | -0.17 -0.22 -0.26 -0.39 -0.39 -0.21 | 0/18 |
| Q27N V29Y K36T W56E | 0.73 0.83 0.75 0.69 2.20 1.57 | 0/18 |
| S25F V29W W56G T59F | -0.05 -0.07 -0.25 -0.28 0.38 0.07 | 0/18 |
| Q27I V29Y R34L K36T W56E | ND 2.00 ND ND 3.43 2.01 | 0/18 |
| S25L S26G S28G N35V W56G | -0.05 -0.15 -0.21 -0.30 -0.23 -0.07 | 0/18 |
| S25A V29W W56G | -0.36 -0.40 -0.37 -0.52 -0.52 -0.12 | 0/18 |
| S25Q R34E W56D | 0.49 -0.02 0.27 -0.44 -0.19 0.10 | 0/18 |
| Q27I V29Y L30P R34P W56E | -0.05 -0.02 -0.27 -0.31 -0.29 -0.03 | 0/18 |
| S26E V29Q W56N S62D | -0.25 -0.58 -0.23 -0.43 -0.45 -0.20 | 0/18 |
| S25L Y31G S33Q W56D A57I | -0.14 -0.13 0.04 -0.22 -0.39 0.21 | 1/18 (2.10) |
| Y31P K36A W56D | -0.03 -0.05 0.34 -0.10 0.06 0.11 | 2/18 (2.59) |
| S25N Y31G S33Q W56D | ND 0.93 1.11 0.64 0.84 2.18 | 0/18 |
| S26L V29N W56H S62D R99Q | 0.08 -0.39 -0.07 -0.34 -0.29 -0.39 | 1/18 (2.75) |
| S25V S28K S33G N35T W56N | 0.15 0.54 0.18 0.21 0.20 0.27 | 1/18 (2.88) |
| S25A S26L N35D W56H S62D | 0.64 0.06 0.12 0.18 0.18 0.16 | 1/18 (2.14) |

The parent sequence was in this pool as ten entries: three were never detected, three once, and four in most replicates, with averages from 0.34 to 2.37.
A sequence measured in both rounds can read differently, since the two assays cover different ranges.
The authors averaged sequences with at least three values out of six and counted those with two or fewer as poor binders.

From the AlphaSeq antibody data of Li et al. 2023 (doi:10.1038/s41467-023-39022-2), copy in the FLAb collection.